From ChEMBL document CHEMBL1142242, “Indanylacetic acid derivatives carrying 4-thiazolyl-phenoxy tail groups, a new class of potent PPAR alpha/gamma/delta pan agonists: synthesis, structure-activity relationship, and in vivo efficacy” (J Med Chem, 2007) come the findings set out here.

This experiment has as its target T1, Peroxisome proliferator-activated receptor delta (Homo sapiens, UniProt Q03181).
T1 sequence (Q03181 whole entry): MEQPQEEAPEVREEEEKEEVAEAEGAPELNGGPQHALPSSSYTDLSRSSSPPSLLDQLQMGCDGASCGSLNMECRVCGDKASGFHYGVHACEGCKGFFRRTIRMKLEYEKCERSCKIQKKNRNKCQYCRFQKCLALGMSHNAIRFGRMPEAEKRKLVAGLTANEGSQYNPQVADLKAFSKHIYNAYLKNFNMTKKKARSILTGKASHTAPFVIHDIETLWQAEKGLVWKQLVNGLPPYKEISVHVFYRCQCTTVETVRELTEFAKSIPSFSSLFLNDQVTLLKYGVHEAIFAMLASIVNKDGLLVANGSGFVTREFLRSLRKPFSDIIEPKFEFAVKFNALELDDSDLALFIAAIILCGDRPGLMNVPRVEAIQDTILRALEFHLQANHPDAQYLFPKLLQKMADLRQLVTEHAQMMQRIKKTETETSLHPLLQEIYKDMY
In words: Agonist activity at human PPAR delta by FRET assay. Format: functional.

pEC50: −log10 of the molar value.

Regarding `COc1cc(-c2nccs2)ccc1OCCCOc1ccc2c(c1)CC[C@H]2CC(=O)O`, the pEC50 is 9.24.
